Reference: PMC5155509 (ChemMedChem, 2016)

What was measured:
[1] = tested on: B. subtilis; experiment: Synergy/antagonism two-drug combination assay, B. subtilis; format: cell-based, Bacillus subtilis
[2] = tested on: S. aureus; experiment: Synergy/antagonism two-drug combination assay, S. aureus; format: cell-based, Staphylococcus aureus; details: for FIC Index: combination of the antibiotic with 7, mean±SD
[3] = antibiotic in combination with 7, mean±SD duplicate

With `NC[C@H]1O[C@H](O[C@H]2[C@H](O)[C@@H](O[C@H]3O[C@H](CO)[C@@H](O)[C@H](N)[C@H]3O)[C@H](N)C[C@@H]2N)[C@H](O)[C@@H](O)[C@@H]1O` [Kanamycin, kanamycin] the MIC antibiotic ([1]; antibiotic alone) was 1.5 mg/L, the FIC antibiotic [1, 3] was 0.64 ± 0.14 and the “FIC Index” value ([1]; combination of the antibiotic with 7, mean±SD) was 1.36 ± 0.33. For the same molecule, the MIC antibiotic ([2]; antibiotic alone) was 1.5 mg/L, the FIC antibiotic [2, 3] was 0.89 ± 0.68 and the “FIC Index” value [2] was 1.72 ± 0.74. For the same molecule, the “FIC Index” value ([2]; listed as kanamycin) was 1.72.
